Experiment: Contact angle of polypropylene glycol oil drop, all seven metals taken together
Format: physicochemical
Conditions: 0.3 weight percent DSA, 33 volume percent solution, buffered pH of 7.8 to 8.3; shown in the Figure

Substance: 2-dodecen-1-yl succinic anhydride [DSA]
- measured contact angles compared with Test Composition D (no surface modifier): lowering of the measured contact angles

Reference: patent publication EP0381656A1, “Alcohol-soluble/water-insoluble oil-containing antifreeze” (FIRST BRANDS CORPORATION, priority 1989, dated 1990)
